Laboratory results reported in patent US9242993B2, “Morpholino substituted bicyclic pyrimidine urea or carbamate derivatives as mTOR inhibitors” (CELLZOME LIMITED, priority 2011, dated 2016).

By UniProt entry, the sequences of proteins in these tests, tags left out. Where a name states a change or a piece, a line headed by the entry shows the natural chain unless it says otherwise.
UniProt P42336, whole entry: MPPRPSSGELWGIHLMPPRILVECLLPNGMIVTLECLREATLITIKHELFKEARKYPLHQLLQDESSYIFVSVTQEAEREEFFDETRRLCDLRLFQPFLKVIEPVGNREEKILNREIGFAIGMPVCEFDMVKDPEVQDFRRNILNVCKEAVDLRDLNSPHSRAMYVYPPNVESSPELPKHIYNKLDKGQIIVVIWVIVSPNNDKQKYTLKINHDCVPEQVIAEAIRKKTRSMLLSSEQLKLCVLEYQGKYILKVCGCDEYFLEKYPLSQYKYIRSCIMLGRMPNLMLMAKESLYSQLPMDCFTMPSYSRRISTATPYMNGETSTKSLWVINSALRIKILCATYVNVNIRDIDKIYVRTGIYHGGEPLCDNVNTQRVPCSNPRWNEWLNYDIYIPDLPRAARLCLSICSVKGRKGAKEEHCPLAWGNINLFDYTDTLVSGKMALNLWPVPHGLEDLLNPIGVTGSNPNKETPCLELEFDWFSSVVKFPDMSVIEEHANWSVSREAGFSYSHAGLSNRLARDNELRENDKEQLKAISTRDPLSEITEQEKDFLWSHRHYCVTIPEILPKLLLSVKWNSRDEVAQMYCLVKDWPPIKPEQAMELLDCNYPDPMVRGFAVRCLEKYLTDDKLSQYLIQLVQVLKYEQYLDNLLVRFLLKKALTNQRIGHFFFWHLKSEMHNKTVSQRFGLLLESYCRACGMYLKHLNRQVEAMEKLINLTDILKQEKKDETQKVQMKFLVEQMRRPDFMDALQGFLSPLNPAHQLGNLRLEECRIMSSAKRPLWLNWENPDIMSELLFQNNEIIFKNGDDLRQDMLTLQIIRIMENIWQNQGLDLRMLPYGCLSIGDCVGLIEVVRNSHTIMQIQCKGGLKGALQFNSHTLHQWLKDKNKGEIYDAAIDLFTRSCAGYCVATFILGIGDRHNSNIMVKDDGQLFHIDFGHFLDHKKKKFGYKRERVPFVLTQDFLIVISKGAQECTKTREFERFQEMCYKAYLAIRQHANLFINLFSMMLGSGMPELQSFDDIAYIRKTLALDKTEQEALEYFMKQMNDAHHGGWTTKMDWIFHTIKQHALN
UniProt P42338: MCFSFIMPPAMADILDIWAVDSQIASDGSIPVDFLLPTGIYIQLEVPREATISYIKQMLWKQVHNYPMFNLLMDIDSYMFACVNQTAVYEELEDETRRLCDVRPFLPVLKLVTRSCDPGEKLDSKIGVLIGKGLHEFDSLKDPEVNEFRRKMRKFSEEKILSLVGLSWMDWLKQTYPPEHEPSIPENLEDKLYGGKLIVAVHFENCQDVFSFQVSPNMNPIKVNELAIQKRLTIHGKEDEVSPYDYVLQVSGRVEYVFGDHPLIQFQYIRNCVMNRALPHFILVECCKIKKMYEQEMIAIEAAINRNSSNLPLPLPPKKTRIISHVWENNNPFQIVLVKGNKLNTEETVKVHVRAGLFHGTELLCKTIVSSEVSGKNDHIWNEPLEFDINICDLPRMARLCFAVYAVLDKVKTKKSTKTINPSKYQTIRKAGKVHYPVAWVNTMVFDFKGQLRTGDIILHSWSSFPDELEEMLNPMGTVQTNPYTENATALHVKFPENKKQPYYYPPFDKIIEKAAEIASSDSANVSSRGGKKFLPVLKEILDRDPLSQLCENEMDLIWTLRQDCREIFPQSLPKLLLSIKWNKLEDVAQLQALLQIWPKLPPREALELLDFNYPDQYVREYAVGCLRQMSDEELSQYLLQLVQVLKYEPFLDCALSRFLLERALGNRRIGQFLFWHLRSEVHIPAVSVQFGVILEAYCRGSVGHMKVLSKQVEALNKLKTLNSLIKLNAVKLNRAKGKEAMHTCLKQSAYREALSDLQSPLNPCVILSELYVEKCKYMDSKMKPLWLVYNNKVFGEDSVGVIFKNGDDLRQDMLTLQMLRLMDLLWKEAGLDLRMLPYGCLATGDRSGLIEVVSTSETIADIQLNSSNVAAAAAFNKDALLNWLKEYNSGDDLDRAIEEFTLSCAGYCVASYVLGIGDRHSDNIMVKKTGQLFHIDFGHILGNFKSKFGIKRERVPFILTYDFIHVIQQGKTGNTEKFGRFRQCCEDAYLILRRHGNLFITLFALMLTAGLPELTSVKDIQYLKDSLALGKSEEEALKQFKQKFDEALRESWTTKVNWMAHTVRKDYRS
UniProt P48736: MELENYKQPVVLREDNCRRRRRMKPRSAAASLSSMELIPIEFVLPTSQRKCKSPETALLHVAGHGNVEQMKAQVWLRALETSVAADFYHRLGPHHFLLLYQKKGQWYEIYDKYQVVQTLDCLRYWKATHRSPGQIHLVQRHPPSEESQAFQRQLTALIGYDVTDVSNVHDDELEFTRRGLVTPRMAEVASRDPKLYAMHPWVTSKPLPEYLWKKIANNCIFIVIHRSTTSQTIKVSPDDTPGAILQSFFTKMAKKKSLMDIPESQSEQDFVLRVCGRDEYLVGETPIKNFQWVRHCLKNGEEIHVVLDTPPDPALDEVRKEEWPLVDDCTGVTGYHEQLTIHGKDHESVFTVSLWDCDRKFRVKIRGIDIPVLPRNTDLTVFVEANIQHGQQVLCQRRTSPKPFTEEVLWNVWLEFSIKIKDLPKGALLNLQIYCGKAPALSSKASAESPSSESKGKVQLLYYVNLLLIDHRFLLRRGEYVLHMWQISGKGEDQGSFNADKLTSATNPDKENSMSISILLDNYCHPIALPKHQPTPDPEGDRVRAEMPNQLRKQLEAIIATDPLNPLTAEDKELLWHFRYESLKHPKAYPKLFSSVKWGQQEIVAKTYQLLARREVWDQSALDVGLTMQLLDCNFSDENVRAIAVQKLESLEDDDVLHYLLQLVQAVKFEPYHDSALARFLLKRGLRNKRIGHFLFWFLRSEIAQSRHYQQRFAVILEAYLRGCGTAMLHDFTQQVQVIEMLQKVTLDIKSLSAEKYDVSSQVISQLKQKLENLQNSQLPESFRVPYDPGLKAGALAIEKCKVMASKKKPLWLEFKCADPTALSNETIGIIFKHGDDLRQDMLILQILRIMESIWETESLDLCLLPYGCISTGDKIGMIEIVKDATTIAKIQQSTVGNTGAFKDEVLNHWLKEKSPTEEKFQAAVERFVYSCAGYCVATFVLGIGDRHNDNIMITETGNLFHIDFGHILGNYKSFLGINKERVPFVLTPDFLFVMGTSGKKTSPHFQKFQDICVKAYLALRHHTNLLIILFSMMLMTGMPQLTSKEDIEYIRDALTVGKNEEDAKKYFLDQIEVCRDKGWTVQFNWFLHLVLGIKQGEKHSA
UniProt O00329: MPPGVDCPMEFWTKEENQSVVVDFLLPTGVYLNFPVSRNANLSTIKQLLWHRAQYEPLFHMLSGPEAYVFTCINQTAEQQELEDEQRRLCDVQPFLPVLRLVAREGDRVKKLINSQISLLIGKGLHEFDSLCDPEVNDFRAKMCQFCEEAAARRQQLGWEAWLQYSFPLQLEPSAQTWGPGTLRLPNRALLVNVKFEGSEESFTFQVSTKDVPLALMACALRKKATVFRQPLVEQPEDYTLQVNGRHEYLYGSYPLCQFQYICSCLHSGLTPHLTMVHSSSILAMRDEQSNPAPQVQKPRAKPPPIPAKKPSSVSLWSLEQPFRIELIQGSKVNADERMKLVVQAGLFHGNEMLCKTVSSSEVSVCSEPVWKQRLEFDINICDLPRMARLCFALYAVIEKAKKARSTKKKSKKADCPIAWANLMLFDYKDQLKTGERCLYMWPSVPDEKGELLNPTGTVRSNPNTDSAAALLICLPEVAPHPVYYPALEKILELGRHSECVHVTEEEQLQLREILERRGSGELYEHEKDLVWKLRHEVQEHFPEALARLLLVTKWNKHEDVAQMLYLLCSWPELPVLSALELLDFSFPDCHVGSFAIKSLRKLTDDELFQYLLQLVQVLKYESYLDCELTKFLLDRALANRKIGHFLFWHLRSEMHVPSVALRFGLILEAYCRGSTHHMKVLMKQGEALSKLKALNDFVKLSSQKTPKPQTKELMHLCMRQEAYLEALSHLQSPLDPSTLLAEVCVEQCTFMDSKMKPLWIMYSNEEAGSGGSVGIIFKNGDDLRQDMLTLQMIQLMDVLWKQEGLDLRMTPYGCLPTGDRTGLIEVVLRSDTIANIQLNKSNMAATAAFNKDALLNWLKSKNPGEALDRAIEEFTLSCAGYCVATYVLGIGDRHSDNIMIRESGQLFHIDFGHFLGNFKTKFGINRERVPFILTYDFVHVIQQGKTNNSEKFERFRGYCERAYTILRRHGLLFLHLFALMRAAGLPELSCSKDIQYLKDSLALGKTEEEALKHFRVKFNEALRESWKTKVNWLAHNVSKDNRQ

How the values were obtained:
Type in all cases: binding
[1] = target: PI3K alpha (PI3Ka) (Homo sapiens, UniProt P42336); experiment: kinobeads assay, PI3K alpha; conditions: Jurkat cell lysate, read-out: PI3Ka inhibition value (IC50), activity level
[2] = target: PI3K beta (PI3 Kb) (Homo sapiens, UniProt P42338); experiment: kinobeads assay, PI3K beta; conditions: Jurkat cell lysate, read-out: PI3Kb inhibition value (IC50), activity level
[3] = target: PI3K gamma (PI3 Kg) (Homo sapiens, UniProt P48736); experiment: kinobeads assay, PI3K gamma; conditions: Jurkat cell lysate, read-out: PI3Kg inhibition value (IC50), activity level
[4] = target: PI3K delta (PI3 Kd) (Homo sapiens, UniProt O00329); experiment: kinobeads assay, PI3K delta; conditions: Jurkat cell lysate, read-out: PI3Kd inhibition value (IC50), activity level

## C[C@H]1COCCN1c1nc(-c2ccc(NC(=O)NCCO)cc2)nc2c1CS(=O)(=O)C2 [Example 13, (S)-1-(2-hydroxyethyl)-3-(4-(4-(3-methylmorpholino)-6,6-dioxido-5,7-dihydrothieno[3,4-d]pyrimidin-2-yl)phenyl)urea]
[1]
  IC50: 1 to 10 µM
[2]
  IC50: > 10 µM
[3]
  IC50: > 10 µM
[4]
  IC50: > 10 µM

## CCNC(=O)Nc1ccc(-c2nc(N3CCOC[C@@H]3C)c3c(n2)C(C)(C)S(=O)(=O)C3C)cc1 (stereo partly drawn) [Example 42, 1-ethyl-3-(4-(5,7,7-trimethyl-4-((S)-3-methylmorpholino)-6,6-dioxido-5,7-dihydrothieno[3,4-d]pyrimidin-2-yl)phenyl)urea]
[1]
  IC50: > 10 µM
[2]
  IC50: > 10 µM
[3]
  IC50: > 10 µM
[4]
  IC50: > 10 µM

## CC1c2c(nc(-c3ccc(NC(=O)NC4CC4)cc3)nc2N2C3CCC2COC3)CS1(=O)=O (stereo not shown) [Example 33, 1-(4-(4-(3-oxa-8-azabicyclo[3.2.1]octan-8-yl)-5-methyl-6,6-dioxido-5,7-dihydrothieno[3,4-d]pyrimidin-2-yl)phenyl)-3-cyclopropylurea]
[1]
  IC50: > 10 µM
[2]
  IC50: > 10 µM
[3]
  IC50: > 10 µM
[4]
  IC50: > 10 µM

## CCNC(=O)Nc1ccc(-c2nc3c(c(N4CCOC[C@@H]4C)n2)[C@H](C)S(=O)(=O)C3)cc1 [Example 40, 1-ethyl-3-(4-((S)-5-methyl-4-((S)-3-methylmorpholino)-6,6-dioxido-5,7-dihydrothieno[3,4-d]pyrimidin-2-yl)phenyl)urea]
[1]
  IC50: 1 to 10 µM
[2]
  IC50: > 10 µM
[3]
  IC50: > 10 µM
[4]
  IC50: > 10 µM
